scFv variants of Ab-14 (heavy chain) against a SARS-CoV-2 spike peptide

Antigen: PDVDLGDISGINAS, a 14-residue peptide of the SARS-CoV-2 spike HR2 region.

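Phage display of a naive human antibody library on the peptide gave the parent. In library AAYL49, one, two or three CDR residues were substituted; doubles and triples were drawn at random. In AlphaSeq, yeast of one mating type display the scFv and yeast of the other type display the target. Pairs that bind mate more often; barcode pairs of the diploids are counted by sequencing. Read counts were normalised to the haploid input and turned into Kd by a linear fit to BCL2-family pairs of known affinity, for each replicate. The assay was run in three technical replicates.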

Parent scFv Ab-14: VH joined to VL by the linker GGGGSGGGGSGGGGS. Changes lie in the heavy chain CDRs alone.
VH: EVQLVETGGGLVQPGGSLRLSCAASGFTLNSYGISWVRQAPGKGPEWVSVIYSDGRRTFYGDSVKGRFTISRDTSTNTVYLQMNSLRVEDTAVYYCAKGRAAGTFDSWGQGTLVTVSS
VL: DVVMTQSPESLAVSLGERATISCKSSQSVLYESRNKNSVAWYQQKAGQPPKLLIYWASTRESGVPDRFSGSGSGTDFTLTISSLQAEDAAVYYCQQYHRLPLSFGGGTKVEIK

Each variant is given by its three heavy chain CDRs, as the data file delimits them; those of the parent are GFTLNSYGIS, VIYSDGRRTFYGDSVK, GRAAGTFDS. Values are log10 of the apparent Kd in nM; lower means stronger binding. "nd" means that the variant was in the library but no mating with the target was seen in that replicate; the authors take this as a sign of poor binding, and no number exists.

| CDR-H1 | CDR-H2 | CDR-H3 | replicates, log10 nM |
|---|---|---|---|
| GFTLNSYGDS | VIISDGRRTFYGDSVK | GRAAGTFDT | nd / 4.75 / nd |
| GFTLNSYGIS | VIYSWGRRTFYGTSVK | GRVAGTFDS | nd / nd / nd |
| GFTLNSYGIP | VIYSDGRRTFYGDSSH | GRAAGTFDS | nd / nd / nd |
| GFFLNSYGRS | VIYSDGRRTFYGDSVK | GRAAGTCDS | nd / 3.55 / nd |
| GFKLNSYGIS | VFYSDGRRTFYGDSVK | GRAAGTFDS | nd / nd / nd |
| GFTLNSYGIS | VIYSDGRRQFYGDSVT | GRAAGTFDR | nd / nd / nd |
| GFTLNQYGVS | VIESDGRRTFYGDSVK | GRAAGTFDS | nd / nd / nd |
| GFTLNSYGIS | VIYSSGRRTFYGDSVQ | GRAHGTFDS | nd / 4.41 / nd |
| GFTLNSYGIS | VIYSDGRRVFYGIRVK | GRAAGTFDS | nd / nd / nd |
| GFTLNSYGIS | VIYSDGRRTFYMMSVK | GRAAGTFWS | nd / 3.95 / nd |
| GFTPWSYGIS | VIYSDGRRSFYGDSVK | GRAAGTFDS | nd / nd / nd |
| GFTLASYGIR | VIYSDGRRTFYGDSVK | GGAAGTFDS | nd / nd / 3.54 |
| GFTLNSYGPS | VIYSDKRRTFYGDSVK | GRAAGTFWS | nd / nd / nd |
| GFTLNSYAIS | VIYSDGRRTFYHDSVK | GRSAGTFDS | 3.48 / nd / nd |
| GFTLNSYGIS | VIYSDGRRTFYLDSVK | GRMHGTFDS | 5.59 / nd / 3.87 |
| GFTLNSYGIS | VNYSDGRRTFCGDSVK | GRAAGTFDS | nd / nd / nd |
| GFTLSSYGIS | VPYSDGRRTFYGDSVK | GLAAGTFDS | nd / nd / nd |
| GFTLNSDGKS | VIYSDGRRTFCGDSVK | GRAAGTFDS | nd / 3.62 / nd |
| WFTLNSYGIS | VIYHDGRRTFYGDSVK | GRAAGTQDS | nd / nd / nd |
| GFTLNSYGIS | VVYSDGRKTFYGDSVK | GRAAGCFDS | nd / nd / nd |
| GFTLESYGIT | VIYSDGHRTFYGDSVK | GRAAGTFDS | nd / nd / nd |
| GFDLNSYGIS | VIYSDGRRTEYGDSLK | GRAAGTFDS | 1.35 / 1.81 / 1.16 |
| GFQLNSMGIV | VIYSDGRRTFYGDSVK | GRAAGTFDS | nd / nd / nd |
| GFTRNSYGIS | VIYSDMRRTFYGDHVK | GRAAGTFDS | nd / nd / nd |
| GFTLNFYGRS | VIYSDGRRTPYGDSVK | GRAAGTFDS | nd / nd / nd |
| GFTLNSYCIG | VIFSDGRRTFYGDSVK | GRAAGTFDS | 3.66 / nd / 2.92 |
| GFALNQYGIS | VIYSDGRRQFYGDSVK | GRAAGTFDS | 0.68 / 0.88 / 0.88 |
| GFTLNSYGIV | VIYSDGRRTFYGDSVK | GRAPGTFDA | nd / nd / 3.43 |
| GITLNSYNIS | VIYSDGERTFYGDSVK | GRAAGTFDS | 4.26 / 3.61 / nd |
| GFTLNSYGIS | SIYYDGRRTFYGDSVK | GRAAFTFDS | 4.40 / nd / nd |
| GFTLNSEGIS | MIYSDPRRTFYGDSVK | GRAAGTFDS | 4.63 / nd / 5.70 |
| GFTLNSYGIS | VIYSLGRRTFYGDSVK | GRACGTFDS | nd / nd / nd |
| GFTLNSYGIG | GIYSDGRRTFYGDRVK | GRAAGTFDS | nd / nd / nd |
| GFTLNSYGIS | VIYSCGRRTHYMDSVK | GRAAGTFDS | nd / nd / nd |
| GFTLNSYGIS | RIYSDGRRTFTGDSVK | GVAAGTFDS | nd / nd / nd |
| GFTLNSYGIS | VIYSDGRRTFYGDSVK | NQAANTFDS | nd / nd / nd |
| GFPLNSYGIS | VIYSDGYRDFYGDSVK | GRAAGTFDS | 3.39 / nd / 3.04 |
| GFTLNSYGIS | VIYSDGRRTFWGDSVH | GRAIGTFDS | nd / nd / nd |
| GFYLNSYGIS | VINSIGRRTFYGDSVK | GRAAGTFDS | nd / nd / nd |
| GFTLNSYGIS | VIYSDGRRTNEGDSVK | GRAAGTFDS | nd / nd / nd |
| HMTLNSYGIS | VIYSDGRYTFYGDSVK | GRAAGTFDS | nd / nd / 4.05 |
| SFTLNSYGIS | VNYSDGRRTFYGDSVK | GRAAGTFDE | nd / nd / nd |
| GFTLNSYGIS | VIYSDGDRTFYGMSTK | GRAAGTFDS | nd / nd / nd |
| GFTLNSYGIS | VIYSDGTRTFYEDSVK | GRAAHTFDS | nd / nd / 5.75 |
| GFTLNSYGIS | VIYSDGRRMPYGDSRK | GRAAGTFDS | nd / nd / nd |
| GFYLNSYGIS | VIYSDGRRTFYGDSVK | GLAAGTQDS | 2.24 / 1.82 / 3.27 |
| GFTLNSYGIW | VIYSVCRRTFYGDSVK | GRAAGTFDS | nd / nd / nd |
| GFTVNSTGIS | VIYSDGRRTFAGDSVK | GRAAGTFDS | nd / nd / nd |
| GFTLNSYGIS | VIYSDGRQTFYEDSVK | GRAATTFDS | nd / nd / nd |

A selection of 7 entries from above:

{"CDR-H1": "GFYLNSYGIS", "CDR-H2": "VIYSDGRRTFYGDSVK", "CDR-H3": "GLAAGTQDS", "replicates, log10 nM": "2.24 / 1.82 / 3.27"}
{"CDR-H1": "GFPLNSYGIS", "CDR-H2": "VIYSDGYRDFYGDSVK", "CDR-H3": "GRAAGTFDS", "replicates, log10 nM": "3.39 / nd / 3.04"}
{"CDR-H1": "HMTLNSYGIS", "CDR-H2": "VIYSDGRYTFYGDSVK", "CDR-H3": "GRAAGTFDS", "replicates, log10 nM": "nd / nd / 4.05"}
{"CDR-H1": "GFTLNSYAIS", "CDR-H2": "VIYSDGRRTFYHDSVK", "CDR-H3": "GRSAGTFDS", "replicates, log10 nM": "3.48 / nd / nd"}
{"CDR-H1": "GFTLNSYGIW", "CDR-H2": "VIYSVCRRTFYGDSVK", "CDR-H3": "GRAAGTFDS", "replicates, log10 nM": "nd / nd / nd"}
{"CDR-H1": "GFKLNSYGIS", "CDR-H2": "VFYSDGRRTFYGDSVK", "CDR-H3": "GRAAGTFDS", "replicates, log10 nM": "nd / nd / nd"}
{"CDR-H1": "GFDLNSYGIS", "CDR-H2": "VIYSDGRRTEYGDSLK", "CDR-H3": "GRAAGTFDS", "replicates, log10 nM": "1.35 / 1.81 / 1.16"}

As a blank, each scFv also met three strains without target: over library AAYL49, 15% of these pairings were detected, typically at 4.06 and seldom below 2.83. In this assay the parent's reference entry averaged 0.65; its copy inside this library read 4.11 (one replicate of three).

Source: Engelhart et al. 2022 (doi:10.1038/s41597-022-01779-4), MIT Lincoln Laboratory and A-Alpha Bio; data file from the FLAb repository.